Assay results reported in PMC11653366 (2024).
Ends that are not written are not given here. * marks the point of attachment. FITC = O=C1OC2(c3ccc(O)cc3Oc3cc(O)ccc32)c2ccc(NC(=S)*)cc21; Ahx = NCCCCCC(=O)O

How the values were obtained:
F*-p40 = target: T1, F*-p40; assay: fluorescence anisotropy
T1 chain: {FITC-Ahx}-APTYSPPPPP

F*-PLLP = target: T2, F*-PLLP; assay: fluorescence anisotropy
T2 chain: {FITC-Ahx}-LASRPLPLLP

Kd (F*-p40): 3.1 µM | Kd (F*-PLLP): > 1000 µM
B1: Abl SH3 SH3 (protein)
chain: PSENDPNLFVALYDFVASGDNTLSITKGEKLRVLGYNHNGEWCEAQTKNGQGWVPSNYITPVNSLEK
